Screening results (PubChem)
miR-21 reporter – miR-21 reporter, rising signal | HeLa miR-21 FLuc reporter, luciferase, 48 h | Potency, µM (top dose mostly 38.3 µM), inactives show at the top dose reporter change, positive = more light | 340,000 tested, under 10 active | AID 2288; active = well fitted rising curve with a large enough effect; inconclusive = small, poorly fitted or top-dose-only effect; inactive = no such curve, though single readings can be large or run the other way;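 further: % of control where 0% means no effect; miR-21 action dims this reporter so a rising signal means less miR-21 action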
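HeLa cells stably expressing CMV-driven firefly luciferase with a downstream miR-21 binding sequence, endogenously expressing miR-21, were treated with titrations (up to about 40uM final) for 48 hours at 37 degree Celsius. Luciferase luminescence was read after lysis.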
DT40 TDP1 CPT – growth inhibition of DT40 Tdp1-/-;hTDP1 cells with camptothecin (screen for TDP1 inhibitors) | chicken DT40 Tdp1-/-;hTDP1 cells + 20 nM CPT, ATP luminescence, 48 h | Potency, µM (highest dose often 46.2 µM), without a hit: at the highest dose activity change, negative = growth inhibition, actives largely listed as inhibitors | hit rate 12% among 420,000; note: potency is the fitted concentration of half-maximal effect; % is set by controls: 0 for no effect and ±100 for the full control effect; nearly all actives have a fitted effect of over 55% in size
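Chicken DT40 Tdp1-/- cells stably complemented with human TDP1 were seeded at 400 cells/well in medium containing 20 nM camptothecin, exposed to pin-transferred compounds, and grown at 37 °C for at least 48 hr. Viability was read as ATP luminescence.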
TDP1 block – blocks human tyrosyl-DNA phosphodiesterase 1; Q9NUW8; hit rate 0.28% among 350,000; recombinant TDP1, AlphaScreen DNA substrate cleavage; Potency, µM (doses to about 130 µM), without a hit: top-dose activity change, negative = inhibition, usual class: inhibitors; note: potency is the fitted concentration of half-maximal effect; % is set by controls: 0 for no effect and ±100 for the full control effect; nearly all actives have a fitted effect of over 40% in size
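Here, a 5' biotin and 3' phosphotyrosine-FITC DNA oligonucleotide reports Tdp1 activity: intact substrate bridges AlphaScreen beads, while cleavage leaves a 3' phosphate and drops signal. All incubations at room temperature.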
TDP1 cell noCPT – qHTS for Inhibitors of human tyrosyl-DNA phosphodiesterase 1 (TDP1): qHTS in cells in absence of CPT. DT40 Tdp1-/- hTDP1 cells, no CPT, ATP luminescence, 48 h. AID 686978, 2013. Potency, µM (doses to about 46.2 µM), without a hit: at the top dose activity change, negative = growth inhibition, usual class: inhibitors. hit rate 15% among 420,000; note: potency is the fitted concentration of half-maximal effect; % is set by controls: 0 for no effect and ±100 for the full control effect; nearly all actives have a fitted effect of over 55% in size
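Seeded 400 DT40-hTDP1 cells/well (vehicle DMSO, no 20 nM CPT); pinned compounds; ≥48 hr at 37 °C; CellTiter-Glo luminescence as viability measure.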
uPA generation – blocks generation of uPA at the cell surface. Potency, µM (doses to about 38.3 µM), for inactives: top-dose activity change, negative = inhibition, most hits filed as inhibitors. hit rate 0.31% among 330,000. cell surface uPA generation assay, qHTS; active = well fitted inhibition curve with a large enough effect; inconclusive = small, poorly fitted or top-dose-only effect; inactive = no such curve, though single readings can be large or run the other way; tested in mouse RAW 264.7 cells; note: potency is the fitted concentration of half-maximal effect; % is set by controls: 0 for no effect and ±100 for the full control effect; nearly all actives have a fitted effect of over 55% in size
An asterisk follows results filed as active; ? = inconclusive; · = no result. An excerpt weighted towards active compounds, which were near 16% of everything screened. Unless noted, calls come from the whole dose curve; as a rule, active = well fitted curve in the direction sought with a large enough effect; inconclusive = small, poorly fitted or top-dose-only effect, or another doubt; inactive = no such curve, though single readings can be large; an effect the other way counts as inactive or inconclusive.

SMILES | miR-21 reporter | DT40 TDP1 CPT | TDP1 block | TDP1 cell noCPT | uPA generation
COc1ccccc1-c1cc(C(=O)NCc2ccccc2)c2c(-c3ccc(C)cc3)[nH]nc2n1 | 26% | 23µM* | -2% | ? | ·
CCOc1ccc(-c2cc(C(=O)NCCc3ccccc3)c3c(-c4ccc(C)cc4)[nH]nc3n2)cc1 | -46% | 12µM* | 3% | 15µM* | ·
O=C(Cc1cccs1)NCc1ccc(Cl)cc1 | -28% | -5% | 1% | -2% | -1%
Cc1cc(S(=O)(=O)N(Cc2ccccc2Cl)c2ccc3c(c2)CCC3)ccc1-n1cnnn1 | 0% | -10% | 2% | ? | 7%
CN1CCc2c(n(CC(O)CN3CCN(CCO)CC3)c3ccccc23)C1=O (stereo unspecified) | -1% | -7% | -2% | -5% | ?
Cc1ccc2nc(-c3ccc(N=Nc4cc(S(=O)(=O)O)c5ccccc5c4O)cc3)sc2c1S(=O)(=O)O | · | ? | -7% | ? | ·
Cc1ccc2nc(-c3ccc(N)cc3)sc2c1S(=O)(=O)O | · | · | 32µM* | · | ·
CCCNC(=O)N1CCN(c2nc(C(C)C)c3c(c2C#N)CC(C)(C)OC3)CC1 | -6% | 29µM* | -2% | -63% | -96%
Cc1ccc(S(=O)(=O)N2CCN(c3nc(C(C)C)c4c(c3C#N)CC(C)(C)OC4)CC2)cc1 | -6% | 16µM* | -1% | 16µM* | ·
CCc1nc(N2CCN(C(C)=O)CC2)c(C#N)c2c1COC(C)(C)C2 | -3% | -13% | 4% | -27% | -10%
Cc1nc(N2CCN(C(=O)c3ccc(Cl)cc3)CC2)c(C#N)c2c1COC(C)(C)C2 | 21% | 29µM* | 3% | ? | 5%
CC(=O)Nc1ccc(CCNC(=O)c2ccc3ccccc3c2O)cc1 | · | -20% | · | ? | 3%
O=C(CC(c1ccccc1)c1ccccc1)NCCOCc1ccccc1 | 2% | -29% | · | ? | 3%
CC(=O)c1ccc(NC(=O)CCc2c(C)nn(-c3ccc4nnc(C)n4n3)c2C)cc1 | -1% | 1% | 5% | -13% | ·
Cc1nn(-c2ccc3nnc(C)n3n2)c(C)c1CCC(=O)Nc1ccc(OC(F)(F)F)cc1 | 0% | 12µM* | 7% | 23µM* | ·

Whole records, quoted from the list. Values in the order: miR-21 reporter | DT40 TDP1 CPT | TDP1 block | TDP1 cell noCPT | uPA generation
`COc1ccccc1-c1cc(C(=O)NCc2ccccc2)c2c(-c3ccc(C)cc3)[nH]nc2n1` is listed as 26% | 23µM* | -2% | ? | ·
`CC(=O)Nc1ccc(CCNC(=O)c2ccc3ccccc3c2O)cc1` is listed as · | -20% | · | ? | 3%
`Cc1ccc2nc(-c3ccc(N)cc3)sc2c1S(=O)(=O)O` is listed as · | · | 32µM* | · | ·

Of the compounds above, 2 contain two or more sulfur atoms:
SMILES | miR-21 reporter | DT40 TDP1 CPT | TDP1 block | TDP1 cell noCPT | uPA generation
Cc1ccc2nc(-c3ccc(N=Nc4cc(S(=O)(=O)O)c5ccccc5c4O)cc3)sc2c1S(=O)(=O)O | · | ? | -7% | ? | ·
Cc1ccc2nc(-c3ccc(N)cc3)sc2c1S(=O)(=O)O | · | · | 32µM* | · | ·

More results
SMILES | miR-21 reporter | DT40 TDP1 CPT | TDP1 block | TDP1 cell noCPT | uPA generation
CN1C(=O)/C(=C\C(=O)c2cccs2)c2ccccc21 | ? | 13µM* | 9% | 9.2µM* | -4%
CN(c1ccc(OCCOc2ccccc2Cl)cc1)S(=O)(=O)c1ccccc1 | · | ? | -6% | 2.9µM* | -4%
O=C(NCCNc1ccc([N+](=O)[O-])cc1C(F)(F)F)c1ccccc1F | -8% | ? | 3% | ? | -5%
O=[N+]([O-])c1ccc(NCCNS(=O)(=O)c2ccccc2)c(C(F)(F)F)c1 | 9% | 26µM* | 6% | 18µM* | -7%
Cc1ccc(C(=O)NCCNc2ccc([N+](=O)[O-])cc2C(F)(F)F)cc1 | 3% | 18µM* | 0% | 18µM* | -10%
O=[N+]([O-])c1ccc(NCCCNS(=O)(=O)c2ccccc2)c(Cl)c1 | -2% | ? | 5% | 16µM* | -2%
COc1ccc(CCNC(=O)c2cc3c(=O)n4ccccc4nc3n(CC3CCCO3)c2=N)cc1 (stereo unspecified) | · | 21µM* | · | 26µM* | -2%
COc1ccc(CCNC(=O)c2cc3c(=O)n4ccccc4nc3n(C3CCCCC3)c2=N)cc1OC | 1% | ? | 8% | ? | ?
COc1ccc(CCNC(=O)c2cc3c(=O)n4ccccc4nc3n(CC3CCCO3)c2=N)cc1OC (stereo unspecified) | 9% | 21µM* | · | ? | -2%
COc1ccc(CCNC(=O)c2cc3c(=O)n4ccccc4nc3n(CCN3CCOCC3)c2=N)cc1 | 8% | 3.7µM* | 6% | 2.6µM* | -9%
COc1ccc(CCn2c(=N)c(C(=O)NCC3CCCO3)cc3c(=O)n4ccccc4nc32)cc1 (stereo unspecified) | 13% | 5.8µM* | 2% | 8.2µM* | 12%
N=c1c(C(=O)NCCc2ccccc2)cc2c(=O)n3ccccc3nc2n1CC1CCCO1 (stereo unspecified) | 1% | ? | 3% | ? | -8%
CCCOC(=O)c1ccc(NC(=O)c2ccc(Br)o2)cc1 | -29% | ? | -3% | ? | 1%
CC(C)OC(=O)c1cc2c(OCC(O)CNC(C)(C)C)cccc2[nH]1 (stereo unspecified) | · | ? | · | -52% | ·
CCn1c2ccccc2c2cc([N+](=O)[O-])ccc21 | -8% | 9% | -1% | -9% | 3%
CN(C)CCn1c2ccccc2c2nc3ccc([N+](=O)[O-])cc3cc21 | 1% | 2.1µM* | · | 2.9µM* | -17%
COC(C(=O)Nc1ccnn1C1CCN(Cc2ccccn2)CC1)c1ccccc1 (stereo unspecified) | -6% | 1% | 3% | -24% | 2%
O=C(CSc1nnc(SCc2cccc3ccccc23)s1)Nc1ccc(C(=O)O)cc1 | -4% | 18µM* | 3% | 21µM* | 4%
CCOC(=O)c1c(NC(=O)CSc2n[nH]c(N)n2)sc(CC)c1C | -8% | -18% | 6% | -2% | 9%
C=CCNC(=S)N/N=C(\C)c1cc(OC)c(OC)c(OC)c1 | -1% | 4.1µM* | 3% | 2.9µM* | -1%
CS(=O)(=O)c1ncc(Cl)c(C(=O)Nc2c(C(=O)c3ccc(Cl)cc3)oc3ccccc23)n1 | -3% | ? | 0% | 3% | ·
CCOc1ccc(NC(=O)c2nc(S(=O)(=O)Cc3ccc(F)cc3)ncc2Cl)cc1 | · | 0.5µM* | · | 0.4µM* | ·
Cc1ccc(NC(=O)c2nc(S(=O)(=O)Cc3ccccc3)ncc2Cl)cc1 | ? | 1.5µM* | 8% | 0.92µM* | -5%
CCS(=O)(=O)c1ncc(Cl)c(C(=O)Nc2c(C(=O)c3ccc(C)cc3)oc3ccccc23)n1 | 1% | 1.6µM* | -1% | 1.6µM* | ·
O=C(NCc1ccccc1)c1nc(S(=O)(=O)Cc2ccc(F)cc2)ncc1Cl | ? | 1.3µM* | 7% | 1.5µM* | ·
CCOc1ccc(CCNC(=O)CCn2nc(C)c3c(C)n(-c4ccccc4)nc3c2=O)cc1 | -1% | 7% | 0% | 16% | -9%
O=C1CC(N(Cc2cccs2)C(=O)Nc2ccccc2)C(=O)N1c1ccc(Cl)cc1 (stereo unspecified) | -2% | -6% | 1% | -27% | 2%
O=C(Nc1ccc(F)cc1)c1nc(S(=O)(=O)Cc2ccccc2)ncc1Cl | ? | 2.1µM* | 3% | 1.6µM* | ?
C=CCn1c(=O)c2ccccc2n2c(SCC(=O)Nc3sc(C(=O)N(CC)CC)c(C)c3C(=O)OCC)nnc12 | 0% | 23µM* | -3% | 15µM* | -4%
